# Measured values from patent publication US6028222A (priority 1996, dated 2000).
# Assay: Stabilization of dilute paracetamol solution by free radical scavengers (formula A)
# Format: physicochemical
# Conditions: 1 mg/ml; 48 hours
# Description: The solutions thus prepared were divided in 10 ml, 100 ml or 80 ml capacity vials, stoppered with a Bromobutyl stopper and capped with an aluminium cap. The preparation was examined for any pink color development.
# After autoclaving at 121° C. for 20 minutes, the vials were stored for 48 hours, either in the presence of actinic light at 5500° K. at room temperature or at 70° C. in the dark (formula A).
structure (smiles),measurement,value
OCC(O)CS (stereo not drawn) [α-monothioglycerol],color at 70° C.,colorless
same,color upon exposure to light,colorless
